From PMC7721897, “Metabolism and pharmacokinetics of a novel polyphenol fatty acid ester phloridzin docosahexaenoate in Balb/c female mice” (Scientific Reports, 2020)

Assay: In vitro phase I metabolism with mouse hepatic microsomes and NADPH
Assay type: in vitro ADME
Conditions: PZ-DHA 1.1 µM, 100 mM NADPH, 1 h, 37 °C
Experimental: Figure 2 PZ-DHA undergoes phase I metabolism in the presence of freshly prepared mouse liver microsomes. PZ-DHA (1.1 µM) was incubated with 100 mM NADPH in the presence of mouse liver microsome for 1 h at 37 °C. Metabolites from PZ-DHA (A) hydrolysis, (B) and (C) hydroxylation, and (D) epoxidation were identified.
Mouse hepatic microsomes were freshly isolated from the livers of male C57BL/6 mice, and the entire extraction procedure was carried out at 4 °C. Mouse livers were minced and homogenized in KCl/sucrose phosphate buffer (0.154 M KCl, 0.25 M sucrose in 50 mM potassium phosphate buffer (K2HPO4/KH2PO4) (PPB), pH 7.5). […] The protein concentration was determined using a Bradford assay (R^2 = 1.00), and microsomes were stored at − 80 °C.
Potential in vitro phase I and phase II metabolites of PZ-DHA were detected by incubating PZ-DHA in the presence of freshly-prepared mouse hepatic microsome preparations. Phase I metabolites were determined by incubating 1.1 µM PZ-DHA with 100 mM NADPH in the presence of mouse hepatic microsomes for 1 h at 37 °C. Phase II methylation, glucuronidation, and sulphation of PZ-DHA was determined by incubating 1.1 µM PZ-DHA with 1 mM SAM, 2 mM UDPGA, and 0.5 mM PAPS, respectively, in the presence of freshly prepared mouse hepatic microsome for 1 h at 37 °C (Supplementary information Tables S1–S4). […]

Substance: tetra-epoxy-phloridzin docosahexaenoate
- phase I metabolite of PZ-DHA identified: identified
